Measured affinities in a library of Ab-14 heavy chain variants

From the AlphaSeq antibody data of Engelhart et al. 2022 (doi:10.1038/s41597-022-01779-4), copy in the FLAb collection.

Antigen: PDVDLGDISGINAS, a 14-residue peptide of the SARS-CoV-2 spike HR2 region.

The variants keep the light chain, the linker and the frameworks of Ab-14 (scFv order VH, the linker GGGGSGGGGSGGGGS, VL).
VH: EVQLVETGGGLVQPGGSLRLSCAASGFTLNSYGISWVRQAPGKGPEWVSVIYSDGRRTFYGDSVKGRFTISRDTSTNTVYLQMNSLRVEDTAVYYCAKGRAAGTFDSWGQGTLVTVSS
VL: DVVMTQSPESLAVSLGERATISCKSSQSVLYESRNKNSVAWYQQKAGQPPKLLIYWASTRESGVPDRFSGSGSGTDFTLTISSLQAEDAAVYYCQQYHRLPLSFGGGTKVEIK

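The parent was found by panning a naive human phage display library on the peptide. Variants in AAYL49 differ from the parent at up to three CDR positions; double and triple changes were sampled at random. The assay is AlphaSeq: two haploid yeast populations carry antibody and antigen on their surface. The frequency of each diploid, read from paired DNA barcodes, reflects how well the two displayed proteins bind. Scores were corrected for input abundance and mapped to Kd with protein pairs of known affinity run in the same pool. The assay was run in three technical replicates.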

Each variant is given by its three heavy chain CDRs, as the data file delimits them; those of the parent are GFTLNSYGIS, VIYSDGRRTFYGDSVK, GRAAGTFDS. All variants listed here change G26 of the VH, counted from its first residue. Each Kd is an estimate from the mating assay, the geometric mean of the replicates in which the pair was seen; lower is stronger. A pair that was not seen in any replicate is written "no signal"; this usually means weak binding, but a binder can also be missed. As a blank, each scFv also met three strains without target: over library AAYL49, 15% of these pairings were detected, typically at 11 µM and seldom below 680 nM.

For PFTLNSYGIS | VEYSDGRRTFYGDSVK | GRAAGLFDS, the assay gave no signal (0 of 3 replicates). The variant EFTLNSYGIS | VINSDGRRTFYGDSVK | GRAAGTFSS showed 690 nM (1 of 3 replicates). The variant PFTLNSYGIS | VIYSDGRRTFYGDSAK | GRAAGTFDS gave 690 nM (2 of 3 replicates). The variant WFTLNHYGIS | VIYSDGRRTFYGDSVK | GRAAGTFRS gave no signal (0 of 3 replicates). The variant CFTLNSSGWS | VIYSDGRRTFYGDSVK | GRAAGTFDS showed 11 µM (2 of 3 replicates). The variant PFTLNSYGIS | VIYSDGRRTFYGDSVK | GRADWTFDS showed 66 µM (2 of 3 replicates).

For PFTLNVYGIS | AIYSDGRRTFYGDSVK | GRAAGTFDS, the assay gave no signal (0 of 3 replicates). With TFTLNSYGWS | VPYSDGRRTFYGDSVK | GRAAGTFDS the result was 1.6 µM (2 of 3 replicates). The variant LFTLNSYGIS | VIYSDGRRTFYKDSMK | GRAAGTFDS showed no signal (0 of 3 replicates). The variant DFTLNSYGIS | VINSDGRRTFYFDSVK | GRAAGTFDS gave no signal (0 of 3 replicates). The variant KFTLDSYGIS | VIYSDGRRTFYGDSVK | GRAAWTFDS showed no signal (0 of 3 replicates). The variant RFTLNSYGIS | VIYSDGRRTFGGDSVK | GRAAGKFDS showed no signal (0 of 3 replicates).

For TFTLNSYGIS | NIYSDGRRTFYGDSVK | GRAYGTFDS, the assay gave no signal (0 of 3 replicates). For AFTLNSYGIS | IIYSDGRRTFYGDSVK | GRAAGTFDC, the assay gave 460 nM (2 of 3 replicates). The variant LFTTNSYGIS | VIYSDGRRTFTGDSVK | GRAAGTFDS showed no signal (0 of 3 replicates). The variant IFTLNSYNAS | VIYSDGRRTFYGDSVK | GRAAGTFDS gave no signal (0 of 3 replicates). The variant EFTLNSYGIR | VCYSDGRRTFYGDSVK | GRAAGTFDS gave 42 µM (2 of 3 replicates). For CFTLNSYGIS | VIYSDGRRTFLGDSVK | GRAAGTFDS, the assay gave no signal (0 of 3 replicates).

The variant LFTLNSYGIS | VIYVDGRRTFYGDSVK | GRAAGTFES showed no signal (0 of 3 replicates). The variant WFTLNSYGIV | VIYSDGRRTFYGDSVK | GRAAGTFDS showed 150 µM (3 of 3 replicates). The variant AFTLNSYGIS | VIYSDGRRTFYGDSVK | GRGAGTFDS showed 7.2 µM (3 of 3 replicates). The variant PFTPNSYGIS | VIYSDGRRTFYVDSVK | GRAAGTFDS gave no signal (0 of 3 replicates). The variant CFTLNSYGIS | VIYSDGKRTFPGDSVK | GRAAGTFDS showed 9.5 µM (1 of 3 replicates). The variant TFTLNSYGIS | VIYSMGRRTFYGDSVA | GRAAGTFDS showed no signal (0 of 3 replicates).

For PFTLNSYGIM | VIYSDGRRTFYGDSVK | GRAAWTFDS, the assay gave 92 µM (2 of 3 replicates). With FFTLNSYGIS | VIYSDGRRTFYGDSVK | GRAGGDFDS the result was 83 nM (3 of 3 replicates). The variant AFTTNSYGIS | VIYSDGRRTFYGDSVS | GRAAGTFDS showed no signal (0 of 3 replicates). The variant KFTLNSYGIS | VIYLDHRRTFYGDSVK | GRAAGTFDS showed 16 µM (2 of 3 replicates). The variant CFTLNSYGIS | VIYSDGRRTFYTDSVK | GRAAGTFCS gave 4.4 µM (3 of 3 replicates). The variant QFTLNSYGIS | KIYSDGRRTFYGDGVK | GRAAGTFDS gave no signal (0 of 3 replicates).

With KFTLNSYGIS | VIYSDGRRTFYGDSVF | GRAAGTFDS the result was 150 nM (3 of 3 replicates). For PFTLNSYGIV | VIYSDGRRTFYGDSWK | GRAAGTFDS, the assay gave no signal (0 of 3 replicates). The variant YFTLNSYGIS | VIYSDGRRHFYKDSVK | GRAAGTFDS gave 1.4 µM (1 of 3 replicates). With NFTLNSYGCS | VIYPDGRRTFYGDSVK | GRAAGTFDS the result was no signal (0 of 3 replicates). With WFTLISYGIS | VIYSDGRRTFYGDSVK | GRLAGTFDS the result was 230 nM (3 of 3 replicates). With VFTLNSYEIS | VIYNDGRRTFYGDSVK | GRAAGTFDS the result was 28 µM (1 of 3 replicates).

For CFTLNSYGIS | VIYSDQRRTFYGDSVK | GRAAGTFTS, the assay gave no signal (0 of 3 replicates). For IFTLNGYGIS | VTYSDGRRTFYGDSVK | GRAAGTFDS, the assay gave no signal (0 of 3 replicates). The variant RFTLNSYGIS | VIYSDGRRTFYGDSVK | IRKAGTFDS gave no signal (0 of 3 replicates). For HFTLISYGIS | VIYSDGRRTQYGDSVK | GRAAGTFDS, the assay gave 15 µM (2 of 3 replicates). The variant TFTLNSYMIS | VIRSDGRRTFYGDSVK | GRAAGTFDS gave no signal (0 of 3 replicates). The variant CFTLNSYGIS | VIYSDGGRTFYGDSVK | GRAAGTFRS gave 120 µM (2 of 3 replicates).

With IFTLNSYGIS | VIYSDTRRTFYGDSVK | GRACGTFDS the result was no signal (0 of 3 replicates). The variant NFTLNSYGIS | VIYSDGRWTFYGDSVK | GRAAGLFDS gave no signal (0 of 3 replicates). With NFTLNSYGIS | VIYSDGRRTFYGDSFK | GRAAGTFDL the result was 48 nM (3 of 3 replicates). The variant HFTLNSYGIS | VIYSICRRTFYGDSVK | GRAAGTFDS gave no signal (0 of 3 replicates). The variant EFTLNSYGIS | VIYSDGRRTFYGDSVK | DRAEGTFDS showed no signal (0 of 3 replicates).

Top 6 of the variants detected in all replicates, tightest first:

{"CDR-H1": "NFTLNSYGIS", "CDR-H2": "VIYSDGRRTFYGDSFK", "CDR-H3": "GRAAGTFDL", "Kd": "48 nM", "seen in": "3/3"}
{"CDR-H1": "FFTLNSYGIS", "CDR-H2": "VIYSDGRRTFYGDSVK", "CDR-H3": "GRAGGDFDS", "Kd": "83 nM", "seen in": "3/3"}
{"CDR-H1": "KFTLNSYGIS", "CDR-H2": "VIYSDGRRTFYGDSVF", "CDR-H3": "GRAAGTFDS", "Kd": "150 nM", "seen in": "3/3"}
{"CDR-H1": "WFTLISYGIS", "CDR-H2": "VIYSDGRRTFYGDSVK", "CDR-H3": "GRLAGTFDS", "Kd": "230 nM", "seen in": "3/3"}
{"CDR-H1": "CFTLNSYGIS", "CDR-H2": "VIYSDGRRTFYTDSVK", "CDR-H3": "GRAAGTFCS", "Kd": "4.4 µM", "seen in": "3/3"}
{"CDR-H1": "AFTLNSYGIS", "CDR-H2": "VIYSDGRRTFYGDSVK", "CDR-H3": "GRGAGTFDS", "Kd": "7.2 µM", "seen in": "3/3"}